Earlier results on one substance are cited in paper PMC9400206.

Chains of the proteins cited; added tags and fusions are not shown. Residues count along the entry.
UniProt P10721, 26-524: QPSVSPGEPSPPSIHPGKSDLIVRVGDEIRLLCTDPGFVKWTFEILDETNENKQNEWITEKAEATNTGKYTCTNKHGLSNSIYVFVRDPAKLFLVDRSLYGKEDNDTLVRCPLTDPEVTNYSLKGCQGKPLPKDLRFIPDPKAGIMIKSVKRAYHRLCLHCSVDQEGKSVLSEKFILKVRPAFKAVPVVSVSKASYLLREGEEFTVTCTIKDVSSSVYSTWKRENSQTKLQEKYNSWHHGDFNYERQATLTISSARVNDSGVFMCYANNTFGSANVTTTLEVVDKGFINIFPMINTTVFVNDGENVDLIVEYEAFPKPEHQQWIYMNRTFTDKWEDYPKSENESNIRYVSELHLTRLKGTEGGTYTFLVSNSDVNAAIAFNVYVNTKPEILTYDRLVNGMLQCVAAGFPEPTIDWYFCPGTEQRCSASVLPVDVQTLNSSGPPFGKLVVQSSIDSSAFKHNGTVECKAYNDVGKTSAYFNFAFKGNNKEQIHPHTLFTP
UniProt P21583, 26-190: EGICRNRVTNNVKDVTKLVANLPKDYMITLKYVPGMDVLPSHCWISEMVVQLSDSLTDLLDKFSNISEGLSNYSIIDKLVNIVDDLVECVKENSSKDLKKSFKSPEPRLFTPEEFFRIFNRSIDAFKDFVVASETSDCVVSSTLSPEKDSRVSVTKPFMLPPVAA

By Kd is commonly meant a measure of binding affinity in units of concentration.

Values joined by “and” are separate entries in the source; they are usually repeats but may differ in a detail not shown here. Equal entries are not always repeated.

The target in the data set is KIT (Homo sapiens) (UniProt P10721).

In the case of SCF (from UniProt P21583), the dissociation constant Kd is 4 nM and 0.57 nM.
